Only a part is listed here, and it is no random draw. The source made the active and inactive calls.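 How the source made its calls: active means viability at or below 50% in the single dose screen; inactive means viability above 50%.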
Assay: antiproliferative effect on LL 47 fibroblasts – human, LL 47 cells, CellTiter-Glo luminescence, primary screen (AID 719);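 further: compound exposure lasted 72 h before the ATP readout; 100% = median luminescence of untreated cell-only wells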
Settings: LL 47 human lung fibroblast viability, ATP luminescence; at 10 µM; stronger effect = lower value
How it was run: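 Test system: LL 47 human lung fibroblasts / Quantity: 1,150 cells in each well / Medium: IMEM growth medium with 15% fetal bovine serum / Incubation: 72 h compound exposure at 37 °C after overnight plating / Detection: CellTiter-Glo luminescence measuring cellular ATP / Read-out: % viability versus median cells-only luminescence / Benchmarks: cell-only wells, no compound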

SMILES	viability
N/C(=N\O)c1c(N)no[n+]1[O-]	inactive: 109%
c1ccc(CN2CCC(Nc3ccccc3)CC2)cc1	inactive: 99.7%
Fc1ccccc1NC1CCN(Cc2ccccc2)CC1	inactive: 92.2%
CCOc1ncccc1C(=O)NCC1(N2CCOCC2)CCCCC1	inactive: 98.2%
CCC(CO)(C(=O)OC1CN2CCC1CC2)c1ccccc1 (centres undefined)	inactive: 94.7%
O=C(OC1CN2CCC1CC2)C1c2ccccc2Oc2ccccc21 (centres undefined)	inactive: 104%
O=C(NCC1(N2CCOCC2)CCCCC1)c1cc2ccccc2o1	inactive: 93.7%
N#CC1(Nc2ccccc2)CCN(CCc2ccccc2)CC1	inactive: 88.2%
O=C(NCC1(N2CCOCC2)CCCCC1)c1cc(=O)[nH]c2ccccc12	inactive: 106%

Source: PubChem BioAssay AID719 (SRMLSC, 2007)
